The results in this text go back to ChEMBL document CHEMBL1144699 (Bioorg Med Chem, 2008).

Chains of the proteins cited; added tags and fusions are not shown. Lines headed by an entry give the natural chain unless they say otherwise; changes in a name come on top.
UniProt P45984: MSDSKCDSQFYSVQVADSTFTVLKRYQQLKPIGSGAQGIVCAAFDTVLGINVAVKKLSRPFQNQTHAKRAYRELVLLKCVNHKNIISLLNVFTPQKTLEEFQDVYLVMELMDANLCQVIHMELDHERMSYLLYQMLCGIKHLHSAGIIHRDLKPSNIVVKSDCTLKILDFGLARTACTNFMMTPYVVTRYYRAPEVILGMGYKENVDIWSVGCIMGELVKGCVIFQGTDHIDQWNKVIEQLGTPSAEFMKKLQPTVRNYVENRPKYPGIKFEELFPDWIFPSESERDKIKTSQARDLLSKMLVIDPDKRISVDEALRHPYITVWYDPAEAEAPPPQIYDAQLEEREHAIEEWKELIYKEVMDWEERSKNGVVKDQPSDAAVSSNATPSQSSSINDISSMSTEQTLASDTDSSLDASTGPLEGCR

For orientation: pIC50 means the IC50 on a negative log10 scale, so that one unit is a factor of ten. A high value points to a low IC50.

SMILES strings stand for the structures. pIC50: −log10 of the molar value.

This assay concerns the target Mitogen-activated protein kinase 9 (Homo sapiens, UniProt P45984). The assay can be described thus: Inhibition of JNK2.

`COC(=O)c1c(-c2ccccc2)c2cc(Br)ccc2c(=O)n1Cc1ccc(S(C)(=O)=O)cc1` gave a pIC50 of 7.52.
